Values of other authors in patent publication US10160747B2, “Compounds and methods for kinase modulation, and indications therefor” (Plexxikon Inc., priority 2016, dated 2018).

Tested on: relapsed or chemotherapy-refractory FLT3-ITD+AML patients
Details: phase II monotherapy; cited from earlier work

For `CC(C)(C)c1cc(NC(=O)Nc2ccc(-c3cn4c(n3)sc3cc(OCCN5CCOCC5)ccc34)cc2)no1` [quizartinib], the “composite complete remission (CRc) rate” value is given as “about 50%”.
